For the assay, the species on record is Homo sapiens. The experiment in a line: Selectivity index, ratio of Ki for inhibition of alexa fluor 647-labeled kinase tracer 314 binding to recombinant N-terminal His6-tagged p110alpha (unknown origin) to Ki for inhibition of alexa fluor 647-labeled kinase tracer 314 binding to recombinant N-terminal GST-fused mTOR (1360 to 2549 residues) (unknown origin).
Turning to `C[C@@H]1COCCN1c1nc(-c2nnc(N)s2)nc2c1C[C@@H]1COCCN21`, the Ratio Ki came out at 189.
For `C[C@@H]1COCCN1c1nc(-c2cnc(N)cc2C(F)F)nc2c1C[C@@H]1COCCN21`, the Ratio Ki worked out at 19.
Turning to `C[C@@H]1COCCN1c1nc(-c2nc(N)ns2)nc2c1C[C@@H]1COCCN21`, the Ratio Ki was found to be 14.
Take `C[C@@H]1COCCN1c1nc(-c2ccc(N)nn2)nc2c1C[C@@H]1COCCN21`: the Ratio Ki was determined as 77.
With `C[C@@H]1COCCN1c1nc(-c2cnc(N)cc2C(F)(F)F)nc2c1C[C@@H]1COCCN21`, the Ratio Ki was found to be 2.3.
Regarding `C[C@@H]1COCCN1c1nc(-c2cnc(N)nc2C(F)(F)F)nc2c1C[C@@H]1COCCN21`, the Ratio Ki came out at 0.22.
The same measure for `C[C@@H]1COCCN1c1nc(-c2cnc(N)nc2C(F)F)nc2c1C[C@@H]1COCCN21`: 0.5; for `C[C@@H]1COCCN1c1nc(-c2cnc(N)s2)nc2c1C[C@@H]1COCCN21`: 166.
